Reference: paper PMC8408562, “Spatially restricted substrate-binding site of cortisol-synthesizing CYP11B1 limits multiple hydroxylations and hinders aldosterone synthesis” (Current Research in Structural Biology, 2021)

By UniProt entry, the sequences of proteins in these tests, tags left out. Where a name states a change or a piece, a line headed by the entry shows the natural chain unless it says otherwise.
UniProt P15538: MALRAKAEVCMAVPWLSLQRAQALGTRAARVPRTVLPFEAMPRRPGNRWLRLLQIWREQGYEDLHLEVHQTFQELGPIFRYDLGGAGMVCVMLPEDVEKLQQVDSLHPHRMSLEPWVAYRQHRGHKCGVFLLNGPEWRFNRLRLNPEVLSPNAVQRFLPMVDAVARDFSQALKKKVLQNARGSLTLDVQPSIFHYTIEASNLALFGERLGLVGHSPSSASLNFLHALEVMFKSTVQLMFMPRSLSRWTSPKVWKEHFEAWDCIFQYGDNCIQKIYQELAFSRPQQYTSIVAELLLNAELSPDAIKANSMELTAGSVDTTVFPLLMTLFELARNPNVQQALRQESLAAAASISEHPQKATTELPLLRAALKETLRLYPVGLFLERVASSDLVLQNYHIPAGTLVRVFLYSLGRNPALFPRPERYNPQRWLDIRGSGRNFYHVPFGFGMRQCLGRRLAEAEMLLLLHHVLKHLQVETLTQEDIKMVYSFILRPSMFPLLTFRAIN

Molecular target: T1, human CYP11B1 mutant (W49R, L50N, L53N, W56R, L244N, W247N) (Homo sapiens, UniProt P15538, L244N/L50N/L53N/W247N/W49R/W56R)
T1 sequence (P15538 28-503 W49R/L50N/L53N/W56R/L244N/W247N limits assumed): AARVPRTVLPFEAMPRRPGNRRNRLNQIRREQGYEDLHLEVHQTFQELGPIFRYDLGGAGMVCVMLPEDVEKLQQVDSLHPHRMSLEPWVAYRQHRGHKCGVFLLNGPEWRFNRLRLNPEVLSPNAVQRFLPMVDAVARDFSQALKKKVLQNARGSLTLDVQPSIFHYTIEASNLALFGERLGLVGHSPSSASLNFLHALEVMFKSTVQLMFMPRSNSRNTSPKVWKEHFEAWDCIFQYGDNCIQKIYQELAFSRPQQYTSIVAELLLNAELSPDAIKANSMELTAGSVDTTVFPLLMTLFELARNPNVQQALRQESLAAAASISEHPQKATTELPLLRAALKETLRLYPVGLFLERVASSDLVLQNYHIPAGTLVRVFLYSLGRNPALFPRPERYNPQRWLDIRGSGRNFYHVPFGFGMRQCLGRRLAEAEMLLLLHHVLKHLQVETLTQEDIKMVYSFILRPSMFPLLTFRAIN
Experiment: Spectroscopic titration of ferric enzyme (difference spectra), mutant
Conditions: calculated from apparent Kd obtained by titration in the presence of 320 μM DOC

Kd: 11.9 nM
SMILES: CC(C)(C(=O)c1cccnc1)c1cccnc1 [Metyrapone, metyrapone]
